Data published in patent US8115060B2, “Means and methods of controlling plant seed germination” (Applied Biotechnology Institute, Inc., priority 2008, dated 2012).

Experiments:
[1] = system: transgenic seedlings (avidin gene)
From the text: To test whether expression of avidin may allow the seeds to germinate but fail to mature or grow at a slower rate we examined the growth of seedlings immediately following germination.

[2] = system: transformed cell cultures (avidin gene, barley amylase promoter); details: multiple lines transferred every two weeks over six weeks; FIG. 4
[3] = 3 days after treatment with biotin

O=C(O)CCCC[C@@H]1SC[C@@H]2NC(=O)N[C@@H]21 [biotin]
number of plants rated No growth [1, 3]: 2 | number of plants rated Rapid growth (root length >= 1 cm) [1, 3]: 15 | number of plants rated Slow growth (root length < 1 cm) [1, 3]: 3 | growth of transgenic seedlings with biotin compared with without ([1]; immediately following germination, vast majority of transgenic seedlings): grew faster with biotin than without | growth of cultures with or without biotin in the media [2]: no significant difference in growth
